{"source": "patent US5801191A", "about": "“Taxoids” (Biophysica Foundation, priority 1995, dated 1998)", "key": {"[1]": {"test_system": "panel of human tumor cell lines", "test": "Cytotoxic activity in a panel of human tumor cell lines as compared to paclitaxel"}, "[2]": {"test": "Water solubility / formulation in aqueous vehicles"}}, "note": "“Also recorded” adds a separate entry of the source."}
{"substance": "methyl vinyl ether/maleic anhydride:paclitaxel conjugate [BP-172]", "values": [{"measurement": "cytotoxic activity as compared to paclitaxel", "setting": "[1]", "value": "cytotoxic activity equal to, or greater than, paclitaxel"}, {"measurement": "formulation in aqueous vehicles", "setting": "[2]", "value": "readily formulated in saline or 5% dextrose; also recorded: readily formulated in standard aqueous vehicles"}, {"measurement": "water solubility as compared with paclitaxel", "setting": "[2]", "value": "more water soluble than paclitaxel"}]}
